Ab-14 light chain CDR variants: yeast mating affinities

The measurements come from Engelhart et al. 2022 (doi:10.1038/s41597-022-01779-4) through the FLAb antibody collection.

Target: peptide PDVDLGDISGINAS, taken from heptad repeat 2 (HR2) of SARS-CoV-2 spike.

Parent scFv Ab-14: VH joined to VL by three GGGGS repeats. Changes lie in the light chain CDRs alone.
VH: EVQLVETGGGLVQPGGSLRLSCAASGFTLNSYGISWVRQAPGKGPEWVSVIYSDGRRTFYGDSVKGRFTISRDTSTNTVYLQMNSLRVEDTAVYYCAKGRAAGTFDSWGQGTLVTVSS
VL: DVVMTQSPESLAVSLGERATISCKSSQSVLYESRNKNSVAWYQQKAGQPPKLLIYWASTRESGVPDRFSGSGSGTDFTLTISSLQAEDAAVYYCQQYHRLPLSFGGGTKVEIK

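The parent was found by panning a naive human phage display library on the peptide. Library AAYL50 holds single substitutions and randomly drawn double and triple substitutions in the CDRs. The scFvs were displayed on barcoded MATa yeast, the peptide on MATalpha yeast. Mating (16 h, 30 °C) was followed by selection of diploids and sequencing of their barcodes. The ratio of observed to expected reads was calibrated, replicate by replicate, on BCL2-family standards whose Kd was known from biolayer interferometry. Each pool was mated in three replicate cultures.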

Each variant is given by its three light chain CDRs, as the data file delimits them; those of the parent are KSSQSVLYESRNKNSVA, WASTRES, QQYHRLPLS. Every variant below is changed at S28 of the VL (sequential numbering). Each Kd is an estimate from the mating assay, the geometric mean of the replicates in which the pair was seen; lower is stronger. "no signal" means that the variant was in the library but no mating with the target was seen in any replicate; the authors take this as a sign of poor binding, and no number exists.

Variant KSSQIVLYESRNNNSVA / WASTRES / QQYHRLPLS gave 1.3 µM (3 of 3 replicates; controls 0 of 9).
Variant KSSQRVLYESRNKNSVA / WASTRES / QQYIRLPLS gave 1.6 µM (3 of 3 replicates; controls 0 of 9).
Variant KSSQLVLYESRNKNSVA / WAWTRES / QQYHRLLLS gave 35 µM (1 of 3 replicates; controls 2 of 9).
Variant LSSQFVLYTSRNKNSVA / WASTRES / QQYHRLPLS gave no signal (0 of 3 replicates; controls 1 of 9).
Variant KSSQHVLYESRNKNSVA / WASTRES / QQYHRLKLS gave 36 µM (2 of 3 replicates; controls 4 of 9).
Variant KSSQYVLYESRNKNSVA / WASDRES / LQYHRLPLS gave 46 µM (3 of 3 replicates; controls 6 of 9).
Variant KSSQDVLYESRNKNSVA / WESTRES / QQYHRLPFS gave 34 nM (3 of 3 replicates; controls 8 of 9).
Variant KSSQDVLYESRNKNSVA / WASPLES / QQYHRLPLS gave 48 µM (1 of 3 replicates; controls 2 of 9).
Variant KSSQAVLYESRNKNSVA / WVSTRES / QQYHRLPLS gave no signal (0 of 3 replicates; controls 0 of 9).
Variant KSSQHVLYESRNKNSVS / WFSTRES / QQYHRLPLS gave 10 µM (2 of 3 replicates; controls 5 of 9).
Variant KESQMVLYESRNKNSVA / WASTRES / QQYHRLPSS gave 7.3 µM (1 of 3 replicates; controls 3 of 9).
Variant KSSQYVLYESRNKNSVA / WASTRES / QVYHRLPIS gave 81 µM (2 of 3 replicates; controls 2 of 9).
Variant KSSQEVLYESYNKNVVA / WASTRES / QQYHRLPLS gave 96 µM (2 of 3 replicates; controls 9 of 9).
Variant KSSQYVLYESRMKNSVA / WASTRES / QQYHRLFLS gave no signal (0 of 3 replicates; controls 0 of 9).
Variant KPSQMNLYESRNKNSVA / WASTRES / QQYHRLPLS gave 14 nM (3 of 3 replicates; controls 2 of 9).
Variant LSSQTVLYESRNKNSRA / WASTRES / QQYHRLPLS gave no signal (0 of 3 replicates; controls 0 of 9).
Variant KSSQDVLYESWNKNSVA / WASTRES / QQYHRLGLS gave 39 nM (3 of 3 replicates; controls 5 of 9).
Variant KSSQAVLYESRNHNSVA / WASTRES / QQYHRLPLS gave 12 nM (3 of 3 replicates; controls 0 of 9).
Variant KSSQAVLYESRNKHSVA / WASCRES / QQYHRLPLS gave 9.3 µM (2 of 3 replicates; controls 2 of 9).
Variant KSSQPVLYESRNKNSVA / WTSTRES / QQYHRGPLS gave 6.4 nM (3 of 3 replicates; controls 2 of 9).
Variant KSSQKVLYESRNKNSVA / WASTRES / QQGHNLPLS gave 67 µM (2 of 3 replicates; controls 5 of 9).
Variant KSSQAVLYESRNKNSPA / WASTRES / NQYHRLPLS gave 9.9 nM (3 of 3 replicates; controls 0 of 9).
Variant KSKQYVEYESRNKNSVA / WASTRES / QQYHRLPLS gave 15 nM (3 of 3 replicates; controls 1 of 9).
Variant KSSQLVLYESRNKNSVA / WRSTRES / QQYHDLPLS gave no signal (0 of 3 replicates; controls 0 of 9).
Variant KSSQTVLYESRNKNSVA / WANMRES / QQYHRLPLS gave 6.9 nM (3 of 3 replicates; controls 0 of 9).
Variant KSSQGVLRESRNKNSVA / WASTRES / QQYHRLPLC gave 770 nM (3 of 3 replicates; controls 5 of 9).
Variant KSSQMVLYSSRNKNSVA / WASTRES / QQYWRLPLS gave 470 nM (3 of 3 replicates; controls 1 of 9).
Variant KSSQDILYESRNKNSVA / WASTRES / QQYHRLPCS gave 34 nM (2 of 3 replicates; controls 0 of 9).
Variant KSSQAVLYESRNKNSPA / WASTRES / QQYHRLWLS gave no signal (0 of 3 replicates; controls 0 of 9).
Variant KSSQMVLMESRNKNSVA / WASTRES / QSYHRLPLS gave 79 nM (3 of 3 replicates; controls 2 of 9).
Variant KSSQAVLYESRNKNSYA / WASTRES / QQYHRLHLS gave no signal (0 of 3 replicates; controls 2 of 9).
Variant YSSQPVLYESRNKNSVA / WWSTRES / QQYHRLPLS gave no signal (0 of 3 replicates; controls 2 of 9).
Variant KSSQLVLYESRNKNSVA / WASTRNS / QQYHDLPLS gave 2.1 µM (3 of 3 replicates; controls 2 of 9).
Variant KSVMKVLYESRNKNSVA / WASTRES / QQYHRLPLS gave 130 nM (2 of 3 replicates; controls 0 of 9).
Variant KSSQWVLYESRNKNPVA / WASTIES / QQYHRLPLS gave 10 µM (2 of 3 replicates; controls 1 of 9).

The 5 strongest on average among those seen in every replicate, once more:

For KSSQPVLYESRNKNSVA / WTSTRES / QQYHRGPLS, the assay gave 6.4 nM (3 of 3 replicates; controls 2 of 9).
For KSSQTVLYESRNKNSVA / WANMRES / QQYHRLPLS, the assay gave 6.9 nM (3 of 3 replicates; controls 0 of 9).
For KSSQAVLYESRNKNSPA / WASTRES / NQYHRLPLS, the assay gave 9.9 nM (3 of 3 replicates; controls 0 of 9).
For KSSQAVLYESRNHNSVA / WASTRES / QQYHRLPLS, the assay gave 12 nM (3 of 3 replicates; controls 0 of 9).
For KPSQMNLYESRNKNSVA / WASTRES / QQYHRLPLS, the assay gave 14 nM (3 of 3 replicates; controls 2 of 9).

Parent in this assay: reference entry 4.4 nM, copy in this library 48 nM. Nonspecific signal, from three strains lacking the peptide, appeared in 18% of pairings of library AAYL50, centred on 15 µM (5% of these signals below 970 nM); values are not corrected for it. Also given: how often the same scFv was detected with the empty control strains.